Data published in ChEMBL document CHEMBL2169869, “Assay and inhibition of diacylglycerol lipase activity” (Bioorg Med Chem Lett, 2012).

Amino acid sequences for entries named in this document (tags omitted).
UniProt Q99685, whole entry: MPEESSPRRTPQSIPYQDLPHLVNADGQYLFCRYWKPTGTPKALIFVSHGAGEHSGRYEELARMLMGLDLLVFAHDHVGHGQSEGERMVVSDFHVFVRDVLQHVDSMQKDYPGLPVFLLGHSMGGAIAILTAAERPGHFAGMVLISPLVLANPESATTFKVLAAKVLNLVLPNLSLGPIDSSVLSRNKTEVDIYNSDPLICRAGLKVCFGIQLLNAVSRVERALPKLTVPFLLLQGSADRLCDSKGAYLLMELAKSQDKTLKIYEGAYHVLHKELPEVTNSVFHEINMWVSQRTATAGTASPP
UniProt P97612, whole entry: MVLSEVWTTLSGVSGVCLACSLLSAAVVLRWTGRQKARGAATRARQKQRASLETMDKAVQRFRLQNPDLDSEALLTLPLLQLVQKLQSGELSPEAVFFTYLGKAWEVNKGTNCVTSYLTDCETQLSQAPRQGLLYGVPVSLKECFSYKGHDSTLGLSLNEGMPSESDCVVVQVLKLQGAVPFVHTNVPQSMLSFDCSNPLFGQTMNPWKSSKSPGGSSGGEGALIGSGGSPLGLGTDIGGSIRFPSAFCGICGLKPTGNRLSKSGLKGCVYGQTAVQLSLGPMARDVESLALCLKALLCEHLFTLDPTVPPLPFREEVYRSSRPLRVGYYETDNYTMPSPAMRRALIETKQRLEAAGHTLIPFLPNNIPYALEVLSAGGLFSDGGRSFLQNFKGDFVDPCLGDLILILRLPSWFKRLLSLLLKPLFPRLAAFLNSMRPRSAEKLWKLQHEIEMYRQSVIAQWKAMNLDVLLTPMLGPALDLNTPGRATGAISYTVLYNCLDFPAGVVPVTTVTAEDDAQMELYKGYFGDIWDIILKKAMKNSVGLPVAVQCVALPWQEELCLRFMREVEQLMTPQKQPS

Experiments:
[1] = target: T1, Diacylglycerol lipase-alpha (Mus musculus) (UniProt Q6WQJ1); experiment: Inhibition of mouse DAGLalpha expressed in HEK293T cell membrane using [14C]SAG substrate at 10 nM by scintillation counting based radio-TLC assay; format: cell membranes; conditions: HEK-293T
T1 sequence (whole entry): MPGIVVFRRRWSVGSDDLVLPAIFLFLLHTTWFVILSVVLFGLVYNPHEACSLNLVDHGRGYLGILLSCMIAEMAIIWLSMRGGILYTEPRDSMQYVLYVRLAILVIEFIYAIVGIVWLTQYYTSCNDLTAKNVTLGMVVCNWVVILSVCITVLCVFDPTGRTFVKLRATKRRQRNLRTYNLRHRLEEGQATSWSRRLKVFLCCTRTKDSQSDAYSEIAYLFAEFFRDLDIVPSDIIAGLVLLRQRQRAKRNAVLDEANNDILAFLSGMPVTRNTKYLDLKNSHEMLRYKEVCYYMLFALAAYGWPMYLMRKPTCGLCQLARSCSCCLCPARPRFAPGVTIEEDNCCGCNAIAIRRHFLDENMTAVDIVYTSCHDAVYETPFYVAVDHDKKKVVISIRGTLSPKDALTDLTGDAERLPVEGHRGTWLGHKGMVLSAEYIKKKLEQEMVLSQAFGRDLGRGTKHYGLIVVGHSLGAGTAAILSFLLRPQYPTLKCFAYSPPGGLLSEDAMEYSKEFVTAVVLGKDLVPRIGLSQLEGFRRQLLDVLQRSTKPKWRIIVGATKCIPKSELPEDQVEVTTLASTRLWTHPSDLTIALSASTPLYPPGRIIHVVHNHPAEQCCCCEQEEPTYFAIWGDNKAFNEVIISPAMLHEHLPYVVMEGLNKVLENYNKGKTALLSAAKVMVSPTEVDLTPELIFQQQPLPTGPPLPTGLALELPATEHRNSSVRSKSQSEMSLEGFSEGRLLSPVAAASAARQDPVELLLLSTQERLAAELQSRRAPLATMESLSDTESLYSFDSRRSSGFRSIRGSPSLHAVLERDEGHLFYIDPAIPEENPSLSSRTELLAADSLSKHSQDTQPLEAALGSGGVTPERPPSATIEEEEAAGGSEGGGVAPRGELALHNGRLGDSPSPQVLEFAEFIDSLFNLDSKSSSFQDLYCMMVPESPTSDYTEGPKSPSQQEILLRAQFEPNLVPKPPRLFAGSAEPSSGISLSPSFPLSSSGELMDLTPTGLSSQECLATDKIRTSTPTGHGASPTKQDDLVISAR
Summary of the method: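 mDAGLα radio-TLC using 8.8 μg membrane protein in 50 mM Tris pH 7.4 with 10 mM CaCl2. Inhibitor tested at 10 nM–10 μM, preincubated 15 min at 37 °C. [14C]SAG 20 μM final for 20 min at 37 °C. CHCl3/MeOH quench, silica TLC, phosphorimaging. Activity = labelled 2-AG+AA over total label. n=1–2.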

[2] = target: Monoglyceride lipase (Homo sapiens) (UniProt Q99685); experiment: Inhibition of human N-terminal histidine tagged full length MAGL expressed in Escherichia coli at 10 uM by coumarin ester substrate fluorescence assay
Summary of the method: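 Purified hMAGL fluorescence assay with a 7-hydroxy-6-methoxy coumarin ester reporter substrate; mean of triplicate experiments.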

[3] = target: T2, Diacylglycerol lipase-alpha (Homo sapiens) (UniProt Q9Y4D2); experiment: Inhibition of human DAGLalpha expressed in HEK293T cell membrane using [14C]SAG substrate at 10 uM in detergent free solution by scintillation counting based radio-TLC assay; conditions: HEK-293T
T2 sequence (whole entry): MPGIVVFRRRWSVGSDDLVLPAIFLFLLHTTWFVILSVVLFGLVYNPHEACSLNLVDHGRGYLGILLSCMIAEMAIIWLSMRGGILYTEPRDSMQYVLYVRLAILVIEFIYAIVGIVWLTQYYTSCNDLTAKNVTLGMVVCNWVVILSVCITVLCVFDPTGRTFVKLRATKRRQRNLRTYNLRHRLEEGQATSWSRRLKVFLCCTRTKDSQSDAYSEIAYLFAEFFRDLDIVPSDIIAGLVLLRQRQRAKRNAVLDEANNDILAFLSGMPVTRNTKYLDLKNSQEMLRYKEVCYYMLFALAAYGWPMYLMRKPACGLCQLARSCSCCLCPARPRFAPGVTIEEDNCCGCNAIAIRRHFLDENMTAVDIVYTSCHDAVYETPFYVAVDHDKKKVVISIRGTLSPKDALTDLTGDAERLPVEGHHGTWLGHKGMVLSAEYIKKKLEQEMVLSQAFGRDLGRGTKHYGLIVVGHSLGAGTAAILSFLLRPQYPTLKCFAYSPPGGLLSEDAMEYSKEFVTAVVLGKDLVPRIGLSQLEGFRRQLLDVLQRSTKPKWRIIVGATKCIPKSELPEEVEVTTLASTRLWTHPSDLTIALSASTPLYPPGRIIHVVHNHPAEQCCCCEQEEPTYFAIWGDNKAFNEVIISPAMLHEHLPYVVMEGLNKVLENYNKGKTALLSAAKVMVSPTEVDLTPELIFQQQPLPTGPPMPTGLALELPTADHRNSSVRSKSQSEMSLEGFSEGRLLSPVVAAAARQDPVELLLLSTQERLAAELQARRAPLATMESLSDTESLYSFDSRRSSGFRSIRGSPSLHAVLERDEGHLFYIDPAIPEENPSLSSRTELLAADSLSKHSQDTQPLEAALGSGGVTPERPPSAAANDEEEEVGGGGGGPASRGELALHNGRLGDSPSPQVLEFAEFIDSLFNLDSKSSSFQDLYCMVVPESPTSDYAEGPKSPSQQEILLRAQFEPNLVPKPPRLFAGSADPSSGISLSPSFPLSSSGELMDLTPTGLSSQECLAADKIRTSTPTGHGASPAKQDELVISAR
Summary of the method: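 Sonicated HEK293T protein (100 μg) in 50 mM Tris pH 7.4 with 10 mM CaCl2. Inhibitor in DMSO (10% DMSO standard) preincubated 15 min at 37 °C. [14C]SAG was added to 20 μM final for 20 min at 37 °C, with Triton X-100 where the line states it. Quenched with 2:1 CHCl3/MeOH. Silica TLC in CHCl3/MeOH/NH4OH 86:14:0.75, then 12 h phosphorimaging. Activity = (2-AG+AA)/(2-AG+AA+SAG). Background-subtracted; n=1–2.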

Sus scrofa = organism: Sus scrofa; experiment: Inhibition of porcine pancreatic lipase type 2 at 10 uM by FRET assay
Summary of the method: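 Porcine pancreatic lipase type II (1.0 μg, suspended in 1:9 DMSO/water) with inhibitor 15 min, then pyrene–dinitrophenyl ether-lipid FRET reporter at 25 μM at 37 °C.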

[4] = target: T2, Diacylglycerol lipase-alpha (Homo sapiens); experiment: Inhibition of human DAGLalpha expressed in HEK293T cell membrane using [14C]SAG substrate at 10 uM using JZL184 pretreated protein in detergent free solution by […]; format: cell-based; conditions: HEK-293T
[5] = target: Fatty-acid amide hydrolase 1 (Rattus norvegicus) (UniProt P97612); experiment: Inhibition of rat histidine tagged FAAH expressed in Escherichia coli at 10 uM by coumarin ester substrate fluorescence assay

Structure (SMILES) | inhibition [1] | inhibition [2] [%] | inhibition [3] | inhibition (Sus scrofa) [%] | inhibition [4] [%] | inhibition [5] [%]
CCCCCCCCCCCCCCCCS(=O)(=O)F | inactive | 82 | inactive | – | – | –
O=S(=O)(F)Cc1ccccc1 [PHENYLMETHYLSULFONYLFLUORIDE] | – | 5 | 19% | 17 | 8 | 100

The source made the active and inactive calls. No cut-off for these calls is given here.
